Reference: patent US20140057915A1, “KINASE INHIBITORS” (TOPIVERT PHARMA LIMITED, priority 2012, published 2014)

Chains of the proteins cited; added tags and fusions are not shown.
UniProt P12931, whole entry: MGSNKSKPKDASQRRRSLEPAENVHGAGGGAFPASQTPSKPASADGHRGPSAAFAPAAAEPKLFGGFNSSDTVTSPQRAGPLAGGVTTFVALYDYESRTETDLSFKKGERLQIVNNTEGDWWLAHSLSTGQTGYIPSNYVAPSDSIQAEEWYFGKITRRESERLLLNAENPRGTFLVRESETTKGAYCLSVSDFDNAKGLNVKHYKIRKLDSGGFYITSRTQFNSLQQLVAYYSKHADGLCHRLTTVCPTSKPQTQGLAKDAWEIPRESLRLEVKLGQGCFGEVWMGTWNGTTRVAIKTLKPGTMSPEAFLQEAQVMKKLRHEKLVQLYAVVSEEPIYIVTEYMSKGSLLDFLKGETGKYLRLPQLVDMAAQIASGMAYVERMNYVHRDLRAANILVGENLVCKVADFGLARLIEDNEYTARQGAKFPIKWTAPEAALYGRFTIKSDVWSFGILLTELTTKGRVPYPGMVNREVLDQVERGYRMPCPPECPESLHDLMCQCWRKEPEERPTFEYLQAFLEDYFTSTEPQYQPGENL

Key:
[1] = tested on: ICAM-1 expression, BEAS2B cells; experiment: Poly I:C-induced ICAM-1 expression in BEAS2B cells; assay type: cell-based; conditions: Homo sapiens, BEAS-2B; read-out: Poly IC induced ICAM1 in BEAS2B, IC50
Experimental: (f) Poly I:C-Induced ICAM-1 Expression in BEAS2B Cells
Poly I:C is used in these studies as a simple, RNA virus mimic. Poly I:C-Oligofectamine mixture (1 μg/mL Poly I:C, ±2% Oligofectamine, 25 μL; Invivogen Ltd., San Diego, Calif., and Invitrogen, Carlsbad, Calif., respectively) is transfected into BEAS2B cells (human bronchial epithelial cells, ATCC). Cells are pre-incubated with final concentrations of test compounds for 2 hr and the level of ICAM1 expression on the cell surface is determined by cell-based ELISA. […]
The cells are washed with PBS-Tween (3×200 μL) and incubated with the secondary antibody (100 μL; HRP-conjugated anti-rabbit IgG, Dako Ltd., Glostrup, Denmark). […] The ICAM-1 signal is detected by reading the absorbance at 450 nm against a reference wavelength of 655 nm using a spectrophotometer. The cells are then washed with PBS-Tween (3×200 μL) and total cell numbers in each well are determined by reading absorbance at 595 nm after Crystal Violet staining (50 μL of a 2% solution in PBS) and elution by 1% SDS solution (100 μL) in distilled water. The measured OD 450-655 readings are corrected for cell number by dividing with the OD595 reading in each well. The inhibition of ICAM-1 expression is calculated at each concentration of test compound by comparison with vehicle control.

cSrc = cSrc (Homo sapiens, UniProt P12931); experiment: c-Src enzyme inhibition (FRET); assay type: biochemical; conditions: Table 4a1
Experimental: The enzyme inhibitory activities of compounds disclosed herein are determined by FRET using synthetic peptides labelled with both donor and acceptor fluorophores (Z-LYTE, Invitrogen Ltd., Paisley, UK).
The relevant enzyme (3000 ng/mL or 2000 ng/mL respectively, 2.5 μL) is incubated with the test compound (either 4 μg/mL, 0.4 μg/mL, 0.04 μg/mL, or 0.004 μg/mL, 2.5 μL each) for 2 hr at RT. The FRET peptides (8 μM, 2.5 μL), and appropriate ATP solutions (2.5 μL, 800 μM for c-Src, and 60 μM ATP for Syk) are then added to the enzymes/compound mixtures and incubated for 1 hr. Development reagent (protease, 5 μL) is added for 1 hr prior to detection in a fluorescence microplate reader (Varioskan® Flash, ThermoFisher Scientific).
In all cases, the site-specific protease cleaves non-phosphorylated peptide only and eliminates the FRET signal. Phosphorylation levels of each reaction are calculated using the ratio of coumarin emission (donor) over fluorescein emission (acceptor), for which high ratios indicate high phosphorylation and low ratios indicate low phosphorylation levels.

`Cc1ccc(-n2nc(C(C)C)cc2NC(=O)Nc2ccc(Oc3ccnc(Nc4cccc(C(=O)NCCN5CCOCC5)c4)n3)c3ccccc23)cc1` [Example 19, 3-((4-((4-(3-(3-isopropyl-1-(p-tolyl)-1H-pyrazol-5-yl)ureido)naphthalen-1-yl)oxy)pyrimidin-2-yl)amino)-N-(2-morpholinoethyl)benzamide] was tested, and the IC50 [1] was 2.1 nM and the IC50 (cSrc) was 2 nM.
